Experimental data taken from PMC4546118 (SpringerPlus, 2015).

Test: Pharmacokinetics of VCM after intravenous administration to control and PN rats
Conditions: control rats, 5 mg/kg intravenous bolus, two-compartment model, plasma LC/MS/MS, mean of n = 4

## CN[C@H](CC(C)C)C(=O)N[C@H]1C(=O)N[C@@H](CC(N)=O)C(=O)N[C@H]2C(=O)N[C@H]3C(=O)N[C@H](C(=O)N[C@H](C(=O)O)c4cc(O)cc(O)c4-c4cc3ccc4O)[C@H](O)c3ccc(c(Cl)c3)Oc3cc2cc(c3O[C@@H]2O[C@H](CO)[C@@H](O)[C@H](O)[C@H]2O[C@H]2C[C@](C)(N)[C@H](O)[C@H](C)O2)Oc2ccc(cc2Cl)[C@H]1O [VCM, vancomycin]
  t1/2β (elimination half-life): 1.26 h
